The assay has as its target H3 receptors (Cavia porcellus, UniProt Q9JI35). Briefly: H3 Receptor Binding Assay (guinea pig brain membranes). Conditions: Receptor Source Guinea pig, [3H]R-α-methyl histamine or [3H]Nα-methyl histamine.

Sequences of proteins named here, by UniProt entry; tags and fusion partners are left off.
UniProt Q9JI35, whole entry: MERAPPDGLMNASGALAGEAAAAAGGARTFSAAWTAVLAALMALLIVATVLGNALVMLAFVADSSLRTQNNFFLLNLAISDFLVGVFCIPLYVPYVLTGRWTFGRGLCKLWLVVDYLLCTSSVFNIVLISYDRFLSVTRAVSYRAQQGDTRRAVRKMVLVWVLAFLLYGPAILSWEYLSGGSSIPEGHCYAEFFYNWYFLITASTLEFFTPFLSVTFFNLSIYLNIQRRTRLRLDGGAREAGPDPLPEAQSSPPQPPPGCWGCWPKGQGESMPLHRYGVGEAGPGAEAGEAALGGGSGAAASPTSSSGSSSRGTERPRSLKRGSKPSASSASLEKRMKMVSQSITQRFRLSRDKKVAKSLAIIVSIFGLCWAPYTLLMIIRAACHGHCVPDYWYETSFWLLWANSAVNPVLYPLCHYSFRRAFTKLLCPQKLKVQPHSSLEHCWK

Each structure is given as a SMILES string.

As usually defined, the Ki is the equilibrium dissociation constant of an inhibitor or competing ligand from its target. Read a low Ki as tighter binding. Compound `CC(C)c1nc2cc(Br)ccc2n1C1CCN(C(=O)C2CCN(Cc3ccnc(N)c3)CC2)CC1` showed a Ki of 0.027 µM.

The values above are taken from patent US7105505B2, “Benzimidazole derivatives useful as histamine H3 antagonists” (Schering Corporation, priority 2002, dated 2006).
